Results reported in patent publication US8901140B2, “6-amino quinazoline or 3-cyano quinoline derivatives, preparation methods and pharmaceutical uses thereof” (Jiangsu Hengrui Medicine Co., Ltd., priority 2009, dated 2014).

Sequences of proteins named here, by UniProt entry; tags and fusion partners are left off. Residues count along the entry.
UniProt P00533, 25-1210: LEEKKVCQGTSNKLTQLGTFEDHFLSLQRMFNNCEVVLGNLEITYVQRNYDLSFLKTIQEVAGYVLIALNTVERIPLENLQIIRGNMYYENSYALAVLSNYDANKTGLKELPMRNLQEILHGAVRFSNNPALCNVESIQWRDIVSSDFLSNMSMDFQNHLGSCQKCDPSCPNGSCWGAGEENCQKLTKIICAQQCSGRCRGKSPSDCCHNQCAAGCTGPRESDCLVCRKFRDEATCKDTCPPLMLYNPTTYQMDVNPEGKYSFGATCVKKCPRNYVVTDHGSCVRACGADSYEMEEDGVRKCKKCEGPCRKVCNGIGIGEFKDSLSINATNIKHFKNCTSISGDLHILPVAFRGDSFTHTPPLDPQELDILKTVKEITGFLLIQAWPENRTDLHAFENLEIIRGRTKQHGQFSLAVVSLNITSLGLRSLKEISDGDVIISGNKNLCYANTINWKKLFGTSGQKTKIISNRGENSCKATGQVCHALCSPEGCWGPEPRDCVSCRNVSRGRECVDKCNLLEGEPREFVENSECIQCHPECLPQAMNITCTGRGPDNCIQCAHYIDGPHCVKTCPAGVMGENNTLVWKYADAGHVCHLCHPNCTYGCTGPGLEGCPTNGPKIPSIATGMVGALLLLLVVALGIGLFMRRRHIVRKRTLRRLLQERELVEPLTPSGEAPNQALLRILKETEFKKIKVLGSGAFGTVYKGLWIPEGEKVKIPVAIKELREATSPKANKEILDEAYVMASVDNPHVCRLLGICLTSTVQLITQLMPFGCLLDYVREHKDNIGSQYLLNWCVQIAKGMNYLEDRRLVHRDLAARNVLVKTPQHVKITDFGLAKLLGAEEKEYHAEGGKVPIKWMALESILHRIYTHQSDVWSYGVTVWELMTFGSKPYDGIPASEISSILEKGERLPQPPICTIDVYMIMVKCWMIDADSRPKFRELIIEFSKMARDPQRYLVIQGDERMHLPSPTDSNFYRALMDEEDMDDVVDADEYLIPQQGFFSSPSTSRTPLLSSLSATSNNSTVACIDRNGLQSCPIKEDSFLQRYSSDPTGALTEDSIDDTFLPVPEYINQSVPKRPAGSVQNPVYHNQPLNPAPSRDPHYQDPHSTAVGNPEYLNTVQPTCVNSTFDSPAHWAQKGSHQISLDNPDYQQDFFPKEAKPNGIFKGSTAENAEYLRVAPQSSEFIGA

Assays:
[1] = tested on: human epidermoid carcinoma A431 cells; assay: EGFR Cell Proliferation Inhibition Assay (SRB method, 72 hours); format: cell-based; conditions: A-431, 72 h, read-out: IC50 (EGFR/A431)
Excerpt: The activity is represented by the IC50 value. The general procedures of the assay are given as follows: The cancer cells A431 that highly expressing EGFR (Institute of biochemistry and cell biology) were chosen and seeded to 96-well cell culture plate at a suitable concentration (e.g., 5000 cells/mL medium). […] Then, the cell culture medium was replaced by fresh one with tested compounds added in it at serial concentrations (general 6 to 7 concentrations). Then the cells were put back to the incubator and cultured continuously. 72 hours later, the activity of the tested compounds for inhibiting the cell proliferation was determined by using Sulforhodamine B (SRB) method. IC50 value on tested cells are calculated by the data of inhibition rates of serial concentrations of the tested compounds.

EGFR kinase = EGFR kinase (Homo sapiens (Human), UniProt P00533); assay: EGFR Kinase Activity Assay (Time-Resolved fluorescence); format: biochemical; conditions: human-derived recombinant EGFR kinase, 20 μM ATP, 25° C., 45 minutes; read-out: IC50 (EGFR/BIO)
Procedure: The in vitro EGFR kinase activity was tested by the following assay.
The following assay may be used to determine the activity of the compounds of the invention for inhibiting EGFR kinase activity. […] EGFR kinase used in this assay is a human-derived recombinant protein (Cell signaling technology, #7908), which was reacted with peptide substrate and different concentrations of tested compounds in a buffer solution containing 60 mM HEPES (pH7.5), 5 mM MgCl2, 5 mM MnCl2, 3 μM Na3VO4, […] (1000×) and 20 μM ATP at 25° C., for 45 minutes. The EGFR kinase activity was determined by using a Time-Resolved fluorescence method.

[2] = Pharmacokinetics Assay in rats, intragastric administration, LC/MS/MS; format: in vivo; conditions: both sexes, rat, plasma, po, SD rats, 25 mg/kg, read-out: Mean Residence Time MRT
Excerpt: The compounds of Example 1 and Example 5 of the present invention were administrated intragastrically to rats to determine the drug concentration in plasma at different time points by LC/MS/MS method. The pharmacokinetic behavior of the compounds of the present invention was studied and evaluated in rats. 8 healthy adult SD rats, male and female in half, were purchased from SINO-BRITSH SIPPR/BK LAB. ANIMAL LTD., CO, License number: SCXK (Shanghai) 2003-0002 The right amount of compounds were weighted and grinded with 0.5% Sodium Carboxymethyl cellulose uniformly, suspended them with 1% tween 80 to 2.5 mg/mL of suspension before use. […] 8 Healthy adult adult SD rats, male and female in half, were divided into 2 groups. After an overnight fast, the rats were administered intragastrically at a dose of 25.0 mg/kg. […] The plasma samples were stored at −20° C. until analysis. The rats were fed 2 hours after administration. 50 μL of rat plasmas taken at various time points after administration were mixed with 50 μL of standard series solution to obtain plasma concentration of 50.0, 100, 200, 500, 1000, 2000, 5000 ng/mL. 150 μL methanol was added and then the mixture was mixed for 3 minute using a vortexer and centrifuged for 10 minutes at 13,500 rpm. 10 μL of the supernatant was analyzed by LC-MS/MS. The main pharmacokinetic parameters were caculated by DAS 2.0 software.

SMILES | IC50 [1] | IC50 (EGFR kinase) | MRT [2]
CCOc1cc2ncc(C#N)c(Nc3ccc(OCc4ccccn4)c(Cl)c3)c2cc1NC(=O)/C=C/[C@@H]1CCCN1C [Example 1, (E)-N-[4-[[3-Chloro-4-(2-pyridylmethoxy)phenyl]amino]-3-cyano-7-ethoxy-6-quinolyl]-3-[(2S)-1-methylpyrrolidin-2-yl]prop-2-enamide] | 0.022 µM | 0.048 µM | 
CCOc1cc2ncc(C#N)c(Nc3ccc(OCc4ccccn4)c(Cl)c3)c2cc1NC(=O)/C=C/[C@H]1CCCN1C [Example 5, (E)-N-[4-[[3-Chloro-4-(2-pyridylmethoxy)phenyl]amino]-3-cyano-7-ethoxy-6-quinolyl]-3-[(2R)-1-methylpyrrolidin-2-yl]prop-2-enamide] | 0.045 µM | 0.013 µM | 7.66 ± 0.75 h
